The series deals with frozen buccal tissue.

In turn, Cholesterol amine yielded an Average flux of 0.25 ug/cm2*min.

(Values after patent US20190091281A1, “DELIVERY PHARMACEUTICAL COMPOSITIONS INCLUDING PERMEATION ENHANCERS” (AQUESTIVE THERAPEUTICS, INC., priority 2017, published 2019).)
